Molecular target: ALK5 (Homo sapiens, UniProt P36897)
Assay: ALK5 inhibition (IC50)
Format: biochemical
Settings: read-out: IC50 ALK5

Sequences of proteins named here, by UniProt entry; tags and fusion partners are left off. Residues count along the entry.
UniProt P36897, 34-503 limits assumed: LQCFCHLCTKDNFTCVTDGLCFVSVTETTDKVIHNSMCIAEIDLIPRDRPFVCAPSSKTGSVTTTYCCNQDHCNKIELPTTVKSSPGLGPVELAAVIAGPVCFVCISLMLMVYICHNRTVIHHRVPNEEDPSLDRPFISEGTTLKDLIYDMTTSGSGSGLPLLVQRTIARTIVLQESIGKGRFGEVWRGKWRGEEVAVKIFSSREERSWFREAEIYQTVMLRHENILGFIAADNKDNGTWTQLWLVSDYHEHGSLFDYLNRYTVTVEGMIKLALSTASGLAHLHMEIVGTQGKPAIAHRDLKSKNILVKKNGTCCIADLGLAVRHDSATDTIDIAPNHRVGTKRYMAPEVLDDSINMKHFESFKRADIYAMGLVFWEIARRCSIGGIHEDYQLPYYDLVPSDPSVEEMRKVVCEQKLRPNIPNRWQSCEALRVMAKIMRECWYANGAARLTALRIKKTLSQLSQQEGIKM

- IC50: 540 nM
SMILES: NC(=O)c1ccc(-c2nc(-c3ccc4c(c3)OCCO4)c(-c3ccccn3)[nH]2)cc1

Reference: US11975005B2, “Treatment of respiratory diseases” (TIANLI BIOTECH PTY LTD, priority 2015, dated 2024)
